Values of other authors, collected in patent US20050004171A1, “Novel substituted benzimidazole dosage forms and method of using same” (priority 1996, published 2005).

Conditions: solubility is altered by temperature; cited from earlier work

In the case of Calcium glycerophosphate, the Solubility is given as 6 g/100 mL.
